# Literature values as cited in US20140330223A1.
# Conditions: Roy et al., J Pharm Sci 85(5), 1996, 491-495
smiles,measurement,value
CCC(=O)N(c1ccccc1)C1CCN(CCc2ccccc2)CC1,concentration of fentanyl in the polyisobutylene matrix at which active ingredient is precipitating,more than 4%

# Some compounds may have been tested in ways that are not shown here.
